What follows are compounds tested against T1, Bcl-XL (Homo sapiens, UniProt Q07817) (assay: Bcl-2 protein family binding assay (Bcl2scan platform)). Details: read-out: Bcl-XL Kd, BIM peptide ligand, 11-point dilution.

Protein sequences, listed by entry. Tags and fused reporters are not part of them.
UniProt Q07817, whole entry: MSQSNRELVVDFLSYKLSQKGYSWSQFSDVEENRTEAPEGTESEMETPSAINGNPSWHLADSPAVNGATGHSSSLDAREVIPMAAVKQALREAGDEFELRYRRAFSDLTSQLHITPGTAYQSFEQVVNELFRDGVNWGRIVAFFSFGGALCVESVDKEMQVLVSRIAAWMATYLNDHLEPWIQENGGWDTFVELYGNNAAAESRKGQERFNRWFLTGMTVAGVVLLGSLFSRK
UniProt P10415, whole entry: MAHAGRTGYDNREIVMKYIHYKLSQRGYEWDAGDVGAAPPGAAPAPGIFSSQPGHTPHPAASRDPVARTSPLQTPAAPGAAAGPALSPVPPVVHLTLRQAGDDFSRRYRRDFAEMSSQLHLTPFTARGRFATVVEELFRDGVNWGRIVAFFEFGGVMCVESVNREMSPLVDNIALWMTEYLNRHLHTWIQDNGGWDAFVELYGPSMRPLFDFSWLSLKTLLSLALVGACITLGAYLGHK

`CN1CCC(F)(CNc2ccc(S(=O)(=O)NC(=O)c3ccc(N4CCN(CC5=C(C67CC(C(F)F)(C6)C7)CC(C)(C)CC5)CC4)cc3Oc3cnc4[nH]ccc4c3)cc2[N+](=O)[O-])CC1` was tested. Which Kd did it give?
The Kd was 10 to 100 nM.

How did the Kd turn out when `CC1(C)CCC(CN2CCN(c3ccc(C(=O)NS(=O)(=O)c4ccc(NCC5CCOCC5)c([N+](=O)[O-])c4)c(Oc4cnc5[nH]ccc5c4)c3)CC2)=C(C23CC(F)(C2)C3)C1` was run?
Its Kd is > 100 nM.

`CC1(C)CCC(CN2CCN(c3ccc(C(=O)NS(=O)(=O)c4ccc(OCC5(F)CCOCC5)c([N+](=O)[O-])c4)c(Oc4cnc5[nH]ccc5c4)c3)CC2)=C(C23CC(C(F)F)(C2)C3)C1` was tested. Which Kd did it give?
The Kd was 10 to 100 nM.

For `CC1(C)CCC(CN2CCN(c3ccc(C(=O)NS(=O)(=O)c4ccc(NC[C@H]5CC[C@](C)(O)CC5)c([N+](=O)[O-])c4)c(Oc4cnc5[nH]ccc5c4)c3)CC2)=C(C23CC(C)(C2)C3)C1`, which Kd is on record?
Its Kd is > 100 nM.

Which Kd does the source give for `CC1(C)CCC(CN2CCN(c3ccc(C(=O)NS(=O)(=O)c4ccc(OCC5(F)CCOCC5)c([N+](=O)[O-])c4)c(Oc4cnc5[nH]ccc5c4)c3)CC2)=C(C23CC(C)(C2)C3)C1` here?
The Kd was > 100 nM.

Which Kd does the source give for `CC(C)C12CC(C3=C(CN4CCN(c5ccc(C(=O)NS(=O)(=O)c6ccc(NCC7CCOCC7)c([N+](=O)[O-])c6)c(Oc6cnc7[nH]ccc7c6)c5)CC4)CCC(C)(C)C3)(C1)C2` here?
The Kd was > 100 nM.

How did the Kd turn out when `CN1CCOC(CNc2ccc(S(=O)(=O)NC(=O)c3ccc(N4CCN(CC5=C(C67CC(C)(C6)C7)CC(C)(C)CC5)CC4)cc3Oc3cnc4[nH]ccc4c3)cc2[N+](=O)[O-])C1` (stereo not drawn) was run?
The Kd was 10 to 100 nM.

For `CC1(C)CCC(C23CC(C)(C2)C3)=C(CN2CCN(c3ccc(C(=O)NS(=O)(=O)c4ccc(N[C@H](CCN5CCOCC5)CSc5ccccc5)c(S(=O)(=O)C(F)(F)F)c4)cc3)CC2)C1`, which Kd is on record?
The Kd was 10 to 100 nM.

For `CC1(C)CCC(CN2CCN(c3ccc(C(=O)NS(=O)(=O)c4ccc(NCC5(F)CCOCC5)c([N+](=O)[O-])c4)c(Oc4cnc5[nH]ccc5c4)c3)CC2)=C(C23CC(C)(C2)C3)C1`, which Kd is on record?
The Kd was > 100 nM.

Which Kd does the source give for `CC1(C)CCC(CN2CCN(c3ccc(C(=O)NS(=O)(=O)c4ccc(NCC5CCOCC5)c([N+](=O)[O-])c4)c(Oc4cnc5[nH]ccc5c4)c3)CC2)=C(C23CC(C)(C2)C3)C1` here?
The Kd was > 100 nM.

With `CCC12CC(C3=C(CN4CCN(c5ccc(C(=O)NS(=O)(=O)c6ccc(NCC7(F)CCOCC7)c([N+](=O)[O-])c6)c(Oc6cnc7[nH]ccc7c6)c5)CC4)CCC(C)(C)C3)(C1)C2` as the compound, how does the Kd read?
Its Kd is > 100 nM.

With `CC1(C)CCC(CN2CCN(c3ccc(C(=O)NS(=O)(=O)c4ccc(NCC5CCOCC5)c([N+](=O)[O-])c4)c(Oc4cnc5[nH]ccc5c4)c3)CC2)=C(C23CC(C(F)(F)F)(C2)C3)C1` as the compound, how does the Kd read?
The Kd was > 100 nM.

For `CC1(C)CCC(CN2CCN(c3ccc(C(=O)NS(=O)(=O)c4ccc(NCC5CCOCC5)c([N+](=O)[O-])c4)c(Oc4cnc5[nH]ccc5c4)c3)CC2)=C(C23CC(C(F)F)(C2)C3)C1`, which Kd is on record?
The Kd was > 100 nM.

`CC1(C)CCC(CN2CCN(c3ccc(C(=O)NS(=O)(=O)c4ccc(NC[C@H]5CC[C@](C)(O)CC5)c([N+](=O)[O-])c4)c(Oc4cnc5[nH]ccc5c4)c3)CC2)=C(C23CC(C(F)F)(C2)C3)C1` was tested. Which Kd did it give?
Its Kd is > 100 nM.

With `CCC12CC(C3=C(CN4CCN(c5ccc(C(=O)NS(=O)(=O)c6ccc(NCC7CCOCC7)c([N+](=O)[O-])c6)c(Oc6cnc7[nH]ccc7c6)c5)CC4)CCC(C)(C)C3)(C1)C2` as the compound, how does the Kd read?
Its Kd is > 100 nM.

With `CN1CCC(F)(CNc2ccc(S(=O)(=O)NC(=O)c3ccc(N4CCN(CC5=C(C67CC(C)(C6)C7)CC(C)(C)CC5)CC4)cc3Oc3cnc4[nH]ccc4c3)cc2[N+](=O)[O-])CC1` as the compound, how does the Kd read?
The Kd was > 100 nM.

With `CC1(C)CCC(CN2CCN(c3ccc(C(=O)NS(=O)(=O)c4ccc(NCC5(F)CCOCC5)c([N+](=O)[O-])c4)c(Oc4cnc5[nH]ccc5c4)c3)CC2)=C(C23CC(C(F)(F)F)(C2)C3)C1` as the compound, how does the Kd read?
Its Kd is > 100 nM.

With `CCC12CC(C3=C(CN4CCN(c5ccc(C(=O)NS(=O)(=O)c6ccc(NC[C@H]7CC[C@](C)(O)CC7)c([N+](=O)[O-])c6)c(Oc6cnc7[nH]ccc7c6)c5)CC4)CCC(C)(C)C3)(C1)C2` as the compound, how does the Kd read?
The Kd was > 100 nM.

For `CC1(C)CCC(CN2CCN(c3ccc(C(=O)NS(=O)(=O)c4ccc(NCC5CCOCC5)c([N+](=O)[O-])c4)c(Oc4cnc5[nH]ccc5c4)c3)CC2)=C(C23CC(C(C)(F)F)(C2)C3)C1`, which Kd is on record?
The Kd was > 100 nM.

Which Kd does the source give for `CC1(C)CCC(CN2CCN(c3ccc(C(=O)NS(=O)(=O)c4ccc(NCC5CCOCC5)c([N+](=O)[O-])c4)c(Oc4cnc5[nH]ccc5c4)c3)CC2)=C(C23CC(Cl)(C2)C3)C1` here?
Its Kd is > 100 nM.

How did the Kd turn out when `CC1(C)CCC(C23CC(C)(C2)C3)=C(CN2CCN(c3ccc(C(=O)NS(=O)(=O)c4ccc(N[C@H](CCN5CCC(O)CC5)CSc5ccccc5)c(S(=O)(=O)C(F)(F)F)c4)cc3)CC2)C1` was run?
Its Kd is 10 to 100 nM.

`CCC12CC(C3=C(CN4CCN(c5ccc(C(=O)NS(=O)(=O)c6ccc(OCC7(F)CCOCC7)c([N+](=O)[O-])c6)c(Oc6cnc7[nH]ccc7c6)c5)CC4)CCC(C)(C)C3)(C1)C2` was tested. Which Kd did it give?
Its Kd is > 100 nM.

How did the Kd turn out when `CC1(C)CCC(CN2CCN(c3ccc(C(=O)NS(=O)(=O)c4ccc(OCC5(F)CCOCC5)c([N+](=O)[O-])c4)c(Oc4cnc5[nH]ccc5c4)c3)CC2)=C(C23CC(C(F)(F)F)(C2)C3)C1` was run?
Its Kd is > 100 nM.

Which Kd does the source give for `CC1(C)CCC(CN2CCN(c3ccc(C(=O)NS(=O)(=O)c4ccc(NCC5CC6(CCOCC6)C5)c([N+](=O)[O-])c4)c(Oc4cnc5[nH]ccc5c4)c3)CC2)=C(C23CC(C)(C2)C3)C1` here?
Its Kd is > 100 nM.

With `CC1(C)CCC(CN2CCN(c3ccc(C(=O)NS(=O)(=O)c4ccc(NC[C@H]5CC[C@](C)(O)CC5)c([N+](=O)[O-])c4)c(Oc4cnc5[nH]ccc5c4)c3)CC2)=C(C23CC(C(F)(F)F)(C2)C3)C1` as the compound, how does the Kd read?
The Kd was > 100 nM.

`CC1(C)CCC(CN2CCN(c3ccc(C(=O)NS(=O)(=O)c4ccc(NCC5(F)CCOCC5)c([N+](=O)[O-])c4)c(Oc4cnc5[nH]ccc5c4)c3)CC2)=C(C23CC(C(F)F)(C2)C3)C1` was tested. Which Kd did it give?
The Kd was > 100 nM.

These compounds were tested against Bcl-2 (Homo sapiens, UniProt P10415) in the same assay as above. Details: read-out: Bcl-2 Kd, BIM peptide ligand, 11-point dilution.

For `CC(C)C12CC(C3=C(CN4CCN(c5ccc(C(=O)NS(=O)(=O)c6ccc(NCC7CCOCC7)c([N+](=O)[O-])c6)c(Oc6cnc7[nH]ccc7c6)c5)CC4)CCC(C)(C)C3)(C1)C2`, which Kd is on record?
The Kd was 10 to 100 nM.

What follows are compounds tested against T1, Bcl-XL (assay: Bcl-2/Bcl-XL HTRF assay). Details: read-out: Bcl-XL IC50, 3 nM Bcl-XL, 40 nM FAM-Bad peptide.
Assay type: binding

`CN(C)C1CCN(CC[C@H](CSc2ccccc2)Nc2ccc(S(=O)(=O)NC(=O)c3ccc(N4CCN(CC5=C(C67CC(C(F)F)(C6)C7)CC(C)(C)CC5)CC4)cc3)cc2S(=O)(=O)C(F)(F)F)CC1` was tested. Which IC50 did it give?
Its IC50 is < 10 nM.

`CC1(C)CCC(CN2CCN(c3ccc(C(=O)NS(=O)(=O)c4ccc(NC[C@H]5CC[C@](C)(O)CC5)c([N+](=O)[O-])c4)c(Oc4cnc5[nH]ccc5c4)c3)CC2)=C(C23CC(C)(C2)C3)C1` was tested. Which IC50 did it give?
Its IC50 is > 100 nM.

For `O=C(NS(=O)(=O)c1ccc(N[C@H](CCN2CCC(O)CC2)CSc2ccccc2)c(S(=O)(=O)C(F)(F)F)c1)c1ccc(N2CCN(CC3=C(C45CC(C(F)F)(C4)C5)CC4(CCC4)CC3)CC2)cc1`, which IC50 is on record?
The IC50 was < 10 nM.

With `CN(C)CC[C@H](CSc1ccccc1)Nc1ccc(S(=O)(=O)NC(=O)c2ccc(N3CCN(CC4=C(C56CC(C(F)F)(C5)C6)CC(C)(C)CC4)CC3)cc2)cc1S(=O)(=O)C(F)(F)F` as the compound, how does the IC50 read?
The IC50 was < 10 nM.

Which IC50 does the source give for `CC1(C)CCC(CN2CCN(c3ccc(C(=O)NS(=O)(=O)c4ccc(N[C@H](CCN5CCOCC5)CSc5ccccc5)c(S(=O)(=O)C(F)(F)F)c4)cc3)CC2)=C(C23CC(C(F)F)(C2)C3)C1` here?
The IC50 was < 10 nM.

Which IC50 does the source give for `CN(CCO)CC[C@H](CSc1ccccc1)Nc1ccc(S(=O)(=O)NC(=O)c2ccc(N3CCN(CC4=C(C56CC(C)(C5)C6)CC(C)(C)CC4)CC3)cc2)cc1S(=O)(=O)C(F)(F)F` here?
The IC50 was < 10 nM.

`CC1(C)CCC(CN2CCN(c3ccc(C(=O)NS(=O)(=O)c4ccc(NCC5(F)CCOCC5)c([N+](=O)[O-])c4)c(Oc4cnc5[nH]ccc5c4)c3)CC2)=C(C23CC(C)(C2)C3)C1` was tested. Which IC50 did it give?
The IC50 was > 100 nM.

`CC1(C)CCC(CN2CCN(c3ccc(C(=O)NS(=O)(=O)c4ccc(N[C@H](CCN5CCNCC5)CSc5ccccc5)c(S(=O)(=O)C(F)(F)F)c4)cc3)CC2)=C(C23CC(C(F)F)(C2)C3)C1` was tested. Which IC50 did it give?
Its IC50 is < 10 nM.

`CC1(C)CCC(CN2CCN(c3ccc(C(=O)NS(=O)(=O)c4ccc(N[C@H](CCN5CCC(O)CC5)CSc5ccccc5)c(S(=O)(=O)C(F)(F)F)c4)cc3)CC2)=C(C23CC(C(F)F)(C2)C3)C1` was tested. Which IC50 did it give?
The IC50 was < 10 nM.

With `CC1(C)CCC(CN2CCN(c3ccc(C(=O)NS(=O)(=O)c4ccc(N[C@H](CCN5CCN(CCO)CC5)CSc5ccccc5)c(S(=O)(=O)C(F)(F)F)c4)cc3)CC2)=C(C23CC(C(F)F)(C2)C3)C1` as the compound, how does the IC50 read?
Its IC50 is < 10 nM.

How did the IC50 turn out when `CN(C)CC[C@H](CSc1ccccc1)Nc1ccc(S(=O)(=O)NC(=O)c2ccc(N3CCN(CC4=C(C56CC(C)(C5)C6)CC(C)(C)CC4)CC3)cc2)cc1S(=O)(=O)C(F)(F)F` was run?
Its IC50 is < 10 nM.

Which IC50 does the source give for `CC1(C)CCC(CN2CCN(c3ccc(C(=O)NS(=O)(=O)c4ccc(NC[C@H]5CC[C@](C)(O)CC5)c([N+](=O)[O-])c4)c(Oc4cnc5[nH]ccc5c4)c3)CC2)=C(C23CC(C(F)F)(C2)C3)C1` here?
The IC50 was 10 to 100 nM.

With `CCC12CC(C3=C(CN4CCN(c5ccc(C(=O)NS(=O)(=O)c6ccc(N[C@H](CCN(C)CCO)CSc7ccccc7)c(S(=O)(=O)C(F)(F)F)c6)cc5)CC4)CCC(C)(C)C3)(C1)C2` as the compound, how does the IC50 read?
Its IC50 is < 10 nM.

For `CC1(C)CCC(CN2CCN(c3ccc(C(=O)NS(=O)(=O)c4ccc(N[C@H](CCN5CCOCC5)CSc5ccccc5)c([N+](=O)[O-])c4)cc3)CC2)=C(C23CC(C(F)F)(C2)C3)C1`, which IC50 is on record?
The IC50 was < 10 nM.

Which IC50 does the source give for `CN(CCO)CC[C@H](CSc1ccccc1)Nc1ccc(S(=O)(=O)NC(=O)c2ccc(N3CCN(CC4=C(C56CC(C(F)F)(C5)C6)CC(C)(C)CC4)CC3)cc2)cc1S(=O)(=O)C(F)(F)F` here?
Its IC50 is < 10 nM.

For `CC1(C)CCC(C23CC(C)(C2)C3)=C(CN2CCN(c3ccc(C(=O)NS(=O)(=O)c4ccc(N[C@H](CCN5CCC(O)CC5)CSc5ccccc5)c(S(=O)(=O)C(F)(F)F)c4)cc3)CC2)C1`, which IC50 is on record?
Its IC50 is < 10 nM.

With `CC1(C)CCC(C23CC(Cl)(C2)C3)=C(CN2CCN(c3ccc(C(=O)NS(=O)(=O)c4ccc(N[C@H](CCN5CCC(O)CC5)CSc5ccccc5)c(S(=O)(=O)C(F)(F)F)c4)cc3)CC2)C1` as the compound, how does the IC50 read?
The IC50 was < 10 nM.

How did the IC50 turn out when `CCN(CCO)CC[C@H](CSc1ccccc1)Nc1ccc(S(=O)(=O)NC(=O)c2ccc(N3CCN(CC4=C(C56CC(C(F)F)(C5)C6)CC(C)(C)CC4)CC3)cc2)cc1S(=O)(=O)C(F)(F)F` was run?
Its IC50 is < 10 nM.

Source: patent US20220273666A1, “NANOPARTICLE FORMULATION OF BCL-2 INHIBITOR” (Recurium IP Holdings, LLC, priority 2019, published 2022)
